Results published in patent US20260315611A1, “LINKER COMPOUNDS AND LIGAND-DRUG CONJUGATES, PREPARATION METHODS AND USES THEREOF” (Biocytogen Pharmaceuticals (Beijing) Co., Ltd., priority 2023, published 2026).

How the values were obtained:
Format in all cases: in vivo, human tumor in B-NDG mice
[1] = tested on: human pancreatic tumor PDX; experiment: anti-tumor activity in human pancreatic PDX model; settings: for Tumor volume Day 0: day of grouping (baseline)
Method: The ADCs were tested for their effects on tumor growth in vivo in human pancreatic tumor PDX models. Immunofluorescence staining of patient-derived tumor fragments was performed and the images were analyzed via HALO 3.2 version.
Specifically, B-NDG mice (Biocytogen Pharmaceuticals (Beijing) Co., Ltd., Cat #: B-CM-002) were engrafted in the right flank with patient-derived pancreatic tumor fragments (2 mm×2 mm×2 mm). When the tumors in the mice reached a volume of about 200-300 mm3, the mice were randomly placed into different groups based on the volume of the tumor. The mice were then injected with PBS or ADCs by intravenous (i.v.) administration at a dosage of 3 mg/kg or 6 mg/kg (1 administration in total).
(§1) The lengths of the long axis and the short axis of the tumor were measured and the volume of the tumor was calculated as 0.5×(long axis)×(short axis)2. […] Ti is the average tumor volume in the treatment group on day i. T0 is the average tumor volume in the treatment group on day zero. Vi is the average tumor volume in the control group on day i. V0 is the average tumor volume in the control group on day zero. T-test was performed for statistical analysis. […] P<0.05 is a threshold to indicate significant difference. The body weights of the mice were also measured throughout the entire administration period.

human breast tumor PDX = experiment: anti-tumor activity in human breast PDX model (Example 6); settings: 6 mg/kg i.v. every two weeks x2
Method: as §1
The ADCs were tested for their effects on tumor growth in vivo in human breast tumor PDX models. Immunofluorescence staining of patient-derived tumor fragments was performed and the images were analyzed via HALO 3.2 version.
Specifically, B-NDG mice were engrafted in the right flank with patient-derived pancreatic tumor fragments (2 mm×2 mm×2 mm). When the tumors in the mice reached a volume of about 200-300 mm3, the mice were randomly placed into different groups based on the volume of the tumor. The mice were then injected with PBS or ADCs by intravenous (i.v.) administration at a dosage of 6 mg/kg. The frequency of administration was once every two weeks (2 administrations in total).

[2] = tested on: human colorectal cancer PDX; experiment: anti-tumor activity in human colorectal cancer PDX model; settings: 6 mg/kg i.v. once
Method: as §1
(§2) The ADCs were tested for their effects on tumor growth in vivo in human lung, colorectal or gastric tumor PDX models. Immunofluorescence staining of patient-derived tumor fragments was performed and the images were analyzed via HALO 3.2 version.
(§3) Specifically, B-NDG mice were engrafted in the right flank with patient-derived lung, colorectal or gastric tumor fragments (2 mm×2 mm×2 mm). When the tumors in the mice reached a volume of about 200-300 mm3, the mice were randomly placed into different groups based on the volume of the tumor.
(§4) The mice were injected with PBS or ADCs by intravenous (i.v.) administration at a dosage of 6 mg/kg (1 administration in total).

human lung cancer PDX = experiment: anti-tumor activity in human lung cancer PDX model; settings: for Tumor volume Day 0: day of grouping (baseline)
Method: as §1, §2, §3, §4

Substance: T-GGFG-Dxd: Trastuzumab analog coupled with GGFG-Dxd (Deruxtecan), mean n 8.14 [reference compound]
- TGI (Day 21) ([1]; 3 mg/kg i.v. once): 30.5%
- Tumor volume Day 14 ([1]; 3 mg/kg i.v. once): 737 ± 81 mm^3
- Tumor volume Day 21 ([1]; 3 mg/kg i.v. once): 1305 ± 130 mm^3
- Tumor volume Day 0 ([1]; 3 mg/kg i.v. once): 242 ± 17 mm^3
- TGI (Day 21) ([1]; 6 mg/kg i.v. once): 22.6%
- Tumor volume Day 14 ([1]; 6 mg/kg i.v. once): 731 ± 89 mm^3
- Tumor volume Day 21 ([1]; 6 mg/kg i.v. once): 1426 ± 134 mm^3
- Tumor volume Day 0 ([1]; 6 mg/kg i.v. once): 242 ± 13 mm^3
- TGI (Day 28) (human breast tumor PDX): 46.6%
- Tumor volume Day 18 (human breast tumor PDX): 638 ± 64 mm^3
- Tumor volume Day 28 (human breast tumor PDX): 1251 ± 149 mm^3
- Tumor volume Day 0 (human breast tumor PDX; day of grouping (baseline)): 214 ± 11 mm^3
- TGI (Day 28) [2]: 55.8%
- Tumor volume Day 14 [2]: 214 ± 45 mm^3
- Tumor volume Day 28 [2]: 506 ± 115 mm^3
- Tumor volume Day 0 ([2]; day of grouping (baseline)): 146 ± 5 mm^3
- TGI (Day 23) (human lung cancer PDX; 3 mg/kg i.v. once): 16.5%
- Tumor volume Day 13 (human lung cancer PDX; 3 mg/kg i.v. once): 779 ± 172 mm^3
- Tumor volume Day 23 (human lung cancer PDX; 3 mg/kg i.v. once): 1558 ± 323 mm^3
- Tumor volume Day 0 (human lung cancer PDX; 3 mg/kg i.v. once): 184 ± 23 mm^3
- TGI (Day 23) (human lung cancer PDX; 6 mg/kg i.v. once): 28.2%
- Tumor volume Day 13 (human lung cancer PDX; 6 mg/kg i.v. once): 503 ± 47 mm^3
- Tumor volume Day 23 (human lung cancer PDX; 6 mg/kg i.v. once): 1364 ± 109 mm^3
- Tumor volume Day 0 (human lung cancer PDX; 6 mg/kg i.v. once): 184 ± 16 mm^3

Substance: T-VC-MMAE: Trastuzumab analog coupled with VC-MMAE, mean n 4.0 [reference compound]
- TGI (Day 21) ([1]; 3 mg/kg i.v. once): 44.9%
- TGI (Day 21) ([1]; 6 mg/kg i.v. once): 60.7%
